Columns and labels:
[1] = biological target: T1, human APLNR (Homo sapiens, UniProt P35414); experiment: AP-ELA binding assay, 293T cells overexpressing receptor; details: HEK293T overexpression
T1 sequence (P35414 1-380): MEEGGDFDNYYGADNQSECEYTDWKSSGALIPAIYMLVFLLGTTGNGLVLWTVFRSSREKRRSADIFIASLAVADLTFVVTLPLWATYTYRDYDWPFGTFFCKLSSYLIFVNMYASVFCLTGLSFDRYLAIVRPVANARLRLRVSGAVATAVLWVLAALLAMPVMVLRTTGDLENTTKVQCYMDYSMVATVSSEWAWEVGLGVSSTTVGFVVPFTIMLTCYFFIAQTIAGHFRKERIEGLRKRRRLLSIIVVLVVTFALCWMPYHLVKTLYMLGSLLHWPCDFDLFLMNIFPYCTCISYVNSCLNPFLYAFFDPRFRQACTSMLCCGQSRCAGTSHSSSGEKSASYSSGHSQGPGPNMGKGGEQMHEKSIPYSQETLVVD

[2] = tested on: hESCs; experiment: xCELLigence real time growth assay, cell counts and colony size of hESCs; format: cell-based, human; details: cell counts, colony size, real-time cell indices; peptide 2.5 uM (10 μg/ml)
Procedure: Feeder-free hESCs were cultured in clumps in mTSER1 (Stem Cell Technologies) on Matrigel (BD 354277).
hESCs were dissociated into single cells using Accutase (Stem Cell Technologies) and plated in the presence of 10 μM Y-27632 (ROCK inhibitor) for 12 hours (Watanabe et al., 2007).
For xCELLigence real time growth assays, 4000 cells were plated per well of an E-plate (ACEA Biosciences) with media changes every 48 hours.
Recombinant ELA was added at 2.5 uM (or 10 μg/ml). Cell cycle studies were performed with Click-iT EDU staining kit (Invitrogen) and by performing a double thymidine block (2.5 mM thymidine; 16 hour block, 8 hour release, 16 hour block) followed by DAPI staining for DNA content at the indicated times following release.

[3] = tested on: hESCs; experiment: insulin replacement assay in hESCs; format: cell-based, human; details: cell index measurements over 5 days
Procedure: For insulin replacement assays, SHEF4 or HESC3 hESCs were cultured in TSER-E5 (Stem Cell Technologies) supplemented with TGF-β (5 ng/ml, R&D Systems) and bFGF (100 ng/ml, Invitrogen) with and without INSULIN (10 ug/ml, SIGMA).

[4] = tested on: hESCs; experiment: stress-induced apoptosis of hESCs by ionizing radiation; format: cell-based, human; details: ELA-treated hESCs

Substance	cell-surface binding of AP-ELA to human APLNR [1]	growth of hESCs relative to untreated cells [2]	replacement of INSULIN in hESC growth, cell index [3]	resistance to gamma irradiation relative to control [4] [times]
AP-ELA: mature C-terminal 32-mer of ELA cloned in frame with alkaline phosphatase, secreted from 293T cells	sufficient to afford cell-surface binding			
QRPVNLTMRRKLRKHNCLQRRCMPLHSRVPFP [ELA]		dose-dependent enhanced growth	partially replaces INSULIN	5

From patent US9902761B2, “Polypeptides, nucleic acids and uses thereof” (AGENCY FOR SCIENCE, TECHNOLOGY AND RESEARCH, priority 2013, dated 2018)
